Compound activity deposited in PubChem by National Center for Advancing Translational Sciences (NCATS).
Only some compounds are listed: those with a hit (about 0.92% of all), similar ones and a draw of the others.
FBPA coupling cs: inhibits coupling enzyme system, counter-screen for aldolase hits. coupling enzyme system counterscreen, AmpLite Red fluorescence. activity change, negative = inhibition, % at 58.2 µM, hits read low. hit rate 0.67% among 290,000. AID 2472; in the data active means activity change below about -30%; further: on the % scale 0 is the no-effect control and ±100 the full control effect
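Compounds tested against the coupling enzymes alone at 57.5 uM final; readout was AmpLite Red fluorescence (525/598 nm) after 20 min at RT.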
miR-21 reporter: miR-21 reporter, rising signal; 340,000 tested, under 10 active; Potency, µM (highest dose often 38.3 µM), for the others: top-dose reporter change, positive = more light; HeLa miR-21 FLuc reporter, luciferase, 48 h; active = well fitted rising curve with a large enough effect; inconclusive = small, poorly fitted or top-dose-only effect; inactive = no such curve, though single readings can be large or run the other way;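 further: % of control where 0% means no effect; miR-21 action dims this reporter so a rising signal means less miR-21 action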
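Compounds were titrated across several concentrations (up to approximately 40 uM) and incubated 48 hours with HeLa miR-21-FLuc reporter cells (miR-21 target sequence downstream of FLuc, endogenous miR-21). Readout was firefly luciferase luminescence after lytic detection reagent.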
GALK inhibitor: blocks human galactokinase activity | P51570 | Purified GALK, Kinase-Glo residual ATP luminescence | Potency, µM (series often up to 57.5 µM), without a hit: top-dose activity change, negative = inhibition, most hits filed as inhibitors | hit rate 0.007% among 270,000 | AID 1868; further: potency means the concentration at half of the fitted maximal effect; on the % scale 0 is the no-effect control and ±100 the full control effect
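Human GALK (5 nM) with 35 uM ATP and 100 uM galactose in 20 mM HEPES pH 8.0, 5 mM MgCl2, 60 mM NaCl, 1 mM DTT, 0.01% BSA. After 1 h at room temperature, leftover ATP was read by Kinase-Glo Plus luminescence.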
B2AR arrestin: beta2AR (human) beta-arrestin recruitment activity | AID 492947 | P07550 | hit rate 0.02% among 330,000 | beta-arrestin recruitment to beta2AR, cell-based reporter | Potency, µM (highest dose often 46.1 µM), without a hit: top-dose activation, hits mostly activators;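 further: potency means the concentration at half of the fitted maximal effect; 0% = DMSO controls and full agonism = EC100 isoproterenol or metaproterenol; nearly all actives have a fitted effect of over 65% in size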
uPA surface inh: cell surface uPA generation inhibition | cell surface uPA generation assay, qHTS | Potency, µM (top dose mostly 38.3 µM), without a hit: at the top dose activity change, negative = inhibition, actives largely listed as inhibitors | hit rate 0.31% among 330,000 | AID 540303; active means well fitted inhibition curve with a large enough effect; inconclusive means small, poorly fitted or top-dose-only effect; inactive means no such curve, though single readings can be large or run the other way; tested in mouse RAW 264.7 cells; further: potency means the concentration at half of the fitted maximal effect; on the % scale 0 is the no-effect control and ±100 the full control effect; nearly all actives have a fitted effect of over 55% in size
Giardia killer: kills Giardia lamblia | AID 540267 | activity change, % at 7.66 µM, hits read low | hit rate 0.15% among 340,000 | Giardia lamblia trophozoite viability; in the data active means activity change below about -80%; inconclusive means between about -30% and that limit;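 further: parasites exposed to compound for two days anaerobically before the ATP read; on the % scale 0 is the no-effect control and ±100 the full control effect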
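Viability, read as ATP luminescence: trophozoites at 100 cells/well, compound added, 48 hrs anaerobic at 37 deg C, then 15-30 min room-temperature development before reading.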
The depositor's hits bear a star; ? = inconclusive; . = no result given. Unless noted, the call rests on the fitted dose curve; in most records, active means well fitted curve in the direction sought with a large enough effect; inconclusive means small, poorly fitted or top-dose-only effect, or another doubt; inactive means no such curve, though single readings can be large; an effect the other way counts as inactive or inconclusive.

Values run as follows: Giardia killer	uPA surface inh	GALK inhibitor	FBPA coupling cs	miR-21 reporter	B2AR arrestin
> CCc1ccccc1NC(=O)CSC1=Nc2ccccc2C2=NC(Cc3ccccc3)C(=O)N12 (stereo unspecified)
→ .	.	.	.	0%	.
> Cc1ccc(-c2cn3c(n2)sc2cc(C(=O)NC4CCCCCC4)ccc23)cc1
→ .	.	.	.	23%	.
> O=C(Cn1c(=O)c2ccccc2n(CC(=O)Nc2ccc(Cl)cc2)c1=O)NCCc1ccccc1
→ .	.	.	.	-16%	.
> O=C(CCc1ccc(S(=O)(=O)N2CCOCC2)cc1)N/N=C/c1ccc(O)c(O)c1O
→ 5	-5%	0%	-31*	-5%	0%
> O=[N+]([O-])c1ccc(N/N=C/c2ccc(O)c(O)c2O)c(S(=O)(=O)N2CCOCC2)c1
→ -1	0%	4%	-59*	-2%	0%
> O=[N+]([O-])c1ccc(N/N=C/c2cccc(O)c2O)c(S(=O)(=O)N2CCOCC2)c1
→ ?	?	10%	-10	-13%	0%
> COc1cccc(CNC(=O)CCc2c(C)nn(-c3ccc(N4CCCC4)nn3)c2C)c1
→ .	.	.	.	-2%	.
> COc1ccc(Oc2nc3c(c(=O)n(Cc4ccccc4Cl)c(=O)n3C)n2C)cc1
→ .	.	.	.	0%	.
> Cc1cc(I)ccc1Nc1c(C(=O)NOCC2CC2)cc(F)c(F)c1F
→ .	.	.	3	.	.
> O=C(Nc1ccc2oc(-c3ccncc3)nc2c1)c1ccc([N+](=O)[O-])o1
→ -80*	-10%	-3%	-1	-15%	-1%
> O=C(Nc1ccc(-c2nc3ncccc3o2)cc1)c1ccc([N+](=O)[O-])o1
→ -94*	-12%	1%	-1	-2%	0%
> Cc1ccc(-c2nc3ncccc3o2)cc1NC(=O)c1ccc([N+](=O)[O-])o1
→ -91*	-3%	3%	2	7%	0%
> Cc1cc(-c2nc3ncccc3o2)ccc1NC(=O)c1ccc([N+](=O)[O-])o1
→ -7	0%	.	.	.	.
> CCc1ccc(OCC(=O)Nc2cc(-c3ccc(C)cc3)no2)cc1
→ .	.	.	.	-38%	.
> COc1ccccc1NS(=O)(=O)c1cccc(C(=O)N2CCN(C/C=C/c3ccccc3)CC2)c1
→ -15	12%	-3%	3	8%	-1%
> COc1ccccc1NS(=O)(=O)c1cc(C(=O)N2CCN(C/C=C/c3ccccc3)CC2)ccc1C
→ -7	4µM*	-4%	.	-4%	0%
> CC1CCC/C(=C\Nc2ccc(O)cc2)C1=O (stereo unspecified)
→ 21	-9%	7%	-38*	-62%	5%
> CCCC(=O)Nc1ccc2c(c1)nc(CN1CCN(C(=O)OCC)CC1)n2C
→ -3	-2%	.	1	0%	0%
> CCCC(=O)Nc1ccc2c(c1)nc(CN1CCN(C(=O)OCC)CC1)n2CC
→ -9	3.5µM*	1%	1	21%	0%
> COn1c(C)c(C)c2c3nonc3ccc21
→ 0	2%	3%	-39*	-7%	0%

Going on with the list:
Values run as follows: Giardia killer	uPA surface inh	GALK inhibitor	FBPA coupling cs	miR-21 reporter	B2AR arrestin
> CCOC(=O)c1c(C)n(OCc2ccccc2)c2ccc3nonc3c12
→ -9	?	-4%	-2	-3%	0%
> NCCNCCN
→ .	.	.	-44*	.	.
> CC(Nc1cc(N2CCN(S(=O)(=O)N(C)C)CC2)ccc1[N+](=O)[O-])c1ccccc1 (stereo unspecified)
→ -21	1%	-1%	-34*	-3%	0%
> COC(C/C=C\[C@H](O)COCc1ccccc1)OC
→ 19	-3%	.	.	.	.
> COC(C/C=C/C(=O)[C@H](C)OCc1ccccc1)OC
→ 3	11µM*	.	.	.	.
> COC(C/C=C/C(=O)COCc1ccccc1)OC
→ 16	7.1µM*	-2%	5	?	-1%
> COC(C/C=C/[C@H](O)[C@@H](C)OCc1ccccc1)OC
→ -1	4%	.	.	.	.
> NC(=O)C(OC(=O)CNC(=O)C1CCCCC1)c1ccccc1 (stereo unspecified)
→ 9	.	.	.	.	.
> Cn1c(=O)c2c(nc(SCC(=O)Nc3ccc(F)cc3)n2Cc2ccccc2F)n(C)c1=O
→ .	.	.	.	-1%	.
> Cc1ccc2c(c1)c(CC(NC(=O)c1ccccc1Oc1ccccc1)C(=O)O)cn2C(=O)OCc1ccccc1 (stereo unspecified)
→ .	.	.	9	.	.
> COc1ccc2c(c1)CCc1c(C(=O)Nc3ccccc3C(F)(F)F)noc1-2
→ .	.	.	.	-35%	.
> COc1cc(-c2nc(Cn3nnc(C(=O)Nc4cc(C)cc(C)c4)c3C)c(C)o2)cc(OC)c1OC
→ .	.	.	.	-2%	.
> CCOC(=O)c1ccc(CC(=O)c2ccc(O)c(O)c2O)o1
→ 3	-1%	1%	-48*	2%	0%
> COC(=O)c1ccc(-n2c(C)cc(C(=O)CCl)c2C)cc1
→ 3	6.3µM*	2%	5	12%	0%
> CCOc1ccc(-n2c(C)cc(C(=O)CCl)c2C)cc1
→ 1	-11%	0%	3	18%	1%
> C=C(C)C(O)/C=C/c1ccc(C)cc1 (stereo unspecified)
→ .	.	.	2	.	.
> COc1ccc(NC(=O)C(Cc2ccccc2)NS(=O)(=O)c2ccc3c(c2)CCC(=O)N3)c(OC)c1 (stereo unspecified)
→ .	.	.	.	-3%	.
> CC1C/C(=N\NC(N)=S)c2cc(Cl)ccc2S1 (stereo unspecified)
→ -13	-5%	-1%	-3	24%	6.3µM*
> CC1(C)OC(C)(C)/C(=C/Nc2ccc(O)cc2)C1=O
→ 10	-4%	0%	-44*	-5%	1%
> Cc1ccc(-n2nc3c(c2NC(=O)C(C)(C)C)CSC3)c(C)c1
→ -4	-8%	0%	-1	-8%	0%

(cont.)
Values run as follows: Giardia killer	uPA surface inh	GALK inhibitor	FBPA coupling cs	miR-21 reporter	B2AR arrestin
> Cc1ccc(-n2nc3c(c2NC(=O)c2ccc(Br)o2)CSC3)c(C)c1
→ 2	8%	-1%	-35*	-2%	0%
> CC1CCc2c(sc(NC(=O)C3=COCCO3)c2C(N)=O)C1 (stereo unspecified)
→ -26	7.9µM*	.	.	.	0%
> CNC(=O)c1c(NC(=O)C2=COCCO2)sc2c1CCC(C)C2 (stereo unspecified)
→ 4	?	-4%	.	-14%	0%
> COc1ccc(CCNC(=O)CN(c2ccc(C)cc2)S(=O)(=O)c2ccc(OC)cc2)cc1
→ .	.	.	.	0%	.
> Cc1ccc(Cl)cc1Nc1nc(-c2sc(NC(=O)c3ccco3)nc2C)cs1
→ 7	7.9µM*	3%	2	26%	0%
> Cc1ncc(CCl)c2c1OC(C)(C)OC2
→ -2	1%	0%	-38*	-3%	0%
> Cc1ncc(CO)c2c1OC(C)(C)OC2
→ -8	3%	2%	8	-3%	0%
> Cc1ccc(CNC(=O)CCCCCn2c(=O)c3sccc3n(CC(=O)N(C)c3ccccc3)c2=O)cc1
→ .	.	.	.	-2%	.
> Cc1ccc(C(C[N+](=O)[O-])c2c(N)n(C)c(=O)n(C)c2=O)cc1 (stereo unspecified)
→ -14	10µM*	-2%	1	?	0%
> COc1cc(C(C[N+](=O)[O-])c2c(N)n(C)c(=O)n(C)c2=O)ccc1O (stereo unspecified)
→ 4	-16%	0%	-4	24%	1%
> CCc1cccc(C)c1NC(=O)c1nc2ccccc2nc1N1CCCCC1
→ .	.	.	.	0%	.

Three of these compounds in a different format:
canonical_smiles	Giardia killer	uPA surface inh	GALK inhibitor	FBPA coupling cs	miR-21 reporter	B2AR arrestin
Cc1ccc(CNC(=O)CCCCCn2c(=O)c3sccc3n(CC(=O)N(C)c3ccccc3)c2=O)cc1	.	.	.	.	-2%	.
Cc1ccc(C(C[N+](=O)[O-])c2c(N)n(C)c(=O)n(C)c2=O)cc1 (stereo unspecified)	-14	10µM*	-2%	1	?	0%
COc1cc(C(C[N+](=O)[O-])c2c(N)n(C)c(=O)n(C)c2=O)ccc1O (stereo unspecified)	4	-16%	0%	-4	24%	1%

In the list so far, these have fluorine.
Values run as follows: Giardia killer	uPA surface inh	GALK inhibitor	FBPA coupling cs	miR-21 reporter	B2AR arrestin
> Cc1cc(I)ccc1Nc1c(C(=O)NOCC2CC2)cc(F)c(F)c1F
→ .	.	.	3	.	.
> Cn1c(=O)c2c(nc(SCC(=O)Nc3ccc(F)cc3)n2Cc2ccccc2F)n(C)c1=O
→ .	.	.	.	-1%	.
> COc1ccc2c(c1)CCc1c(C(=O)Nc3ccccc3C(F)(F)F)noc1-2
→ .	.	.	.	-35%	.
